# Curated experimental data: melting point values

Melting points are in °C.
The databases behind each value are named after "via".

Listed for NNC(=O)Cc1ccc(F)cc1 [2-(4-fluorophenyl)acetohydrazide]: MP 130 °C (via OCHEM). O=Cc1ccc(-c2nc3ccccc3s2)o1 [5-(1,3-benzothiazol-2-yl)-2-furaldehyde] has MP 178 °C (via OCHEM). Listed for Cc1nn(-c2ccccc2)c(Cl)c1CO [(5-chloro-3-methyl-1-phenyl-1H-pyrazol-4-yl)methanol]: MP 90 °C (via OCHEM). Cc1cc(Cl)n2ncnc2c1 [5-Chloro-7-methyl[1,2,4]triazolo[1,5-a]pyridine] has MP 94 °C (via OCHEM). For CCc1cccc2c(C=O)c[nH]c12 [7-Ethyl-1H-indole-3-carbaldehyde] the data give MP 100 °C (via OCHEM).

The entry for CN(C)c1nc(N)nc(CC#N)n1 [[4-amino-6-(dimethylamino)-1,3,5-triazin-2-yl]acetonitrile] lists MP 140 °C (via OCHEM). Listed for COC(=O)c1ccc(C=CC(=O)O)cc1 [Benzoic acid, 4-(2-carboxyethenyl)-, 1-methyl ester]: MP 237 °C (via OCHEM). Listed for Nc1ccc(-n2cncn2)c(F)c1 [3-Fluoro-4-(1H-1,2,4-triazol-1-yl)aniline]: MP 127 °C (via OCHEM). CC(C)c1ccccc1-n1cc[nH]c1=S [1-(2-isopropylphenyl)-1H-imidazole-2-thiol] has MP 175 °C (via OCHEM). Listed for O=C1CCc2cc(F)ccc2N1 [6-Fluoro-3,4-dihydroquinolin-2(1H)-one]: MP 135 °C (via OCHEM).

The entry for Nc1ccc(NS(=O)(=O)c2ccc(N)cc2)cc1 [Benzenesulfonamide, 4-amino-N-(4-aminophenyl)-] lists MP 138.5 °C (via eChemPortal). The entry for O=C(O)CCNCC(=O)O [N-(Carboxymethyl)-beta-alanine] lists MP 196.5 °C (via PubChem). CC(=O)NC1(C#N)CCC(Cl)C1 (centres undefined) [N-(3-Chloro-1-cyanocyclopentyl)acetamide] is reported with MP 75 °C (via OCHEM). Listed for NC1CCN(c2ncccn2)CC1 [1-(Pyrimidin-2-yl)piperidin-4-amine]: MP 83 °C (via OCHEM). For CN1CCN(c2ccc(C(=O)O)cc2[N+](=O)[O-])CC1 [4-(4-methylpiperazin-1-yl)-3-nitrobenzoic acid] the data give MP 161 °C (via OCHEM).

For Cc1ccc(-c2nn(-c3ccccc3)cc2C=CC(=O)O)cc1 the data give MP 221 °C (via OCHEM). COCCCNCC1COc2ccccc2O1.Cl (centres undefined) has MP 184 °C (via OCHEM). Listed for Cc1ccc(C(=O)N(C)c2ccc(O)cc2)cc1 [N-(4-hydroxyphenyl)-N,4-dimethylbenzamide]: MP 116 °C (via OCHEM). O=C(CC(=O)Nc1ccc(F)cc1)Nc1ccc(F)cc1 [N,N'-bis(4-fluorophenyl)propanediamide] is reported with MP 218 °C (via OCHEM). The entry for S=c1[nH]ncn1-c1cccc(Cl)c1 [4-(3-chlorophenyl)-4H-1,2,4-triazole-3-thiol] lists MP 188 °C (via OCHEM).

C=C(C)C(=O)OC(O)CCC (centres undefined) [1-Hydroxybutyl 2-methylprop-2-enoate] has MP -19.65 °C (via eChemPortal). N#CCCn1cnc2ccccc2c1=O [3-(4-oxoquinazolin-3(4H)-yl)propanenitrile] is reported with MP 143 °C (via OCHEM). N=c1[nH]c(-c2ccccc2)cn1N=Cc1ccccc1 is reported with MP 203 °C (via OCHEM). O=C(O)c1ccc(NC(=O)C23CC4CC(CC(C4)C2)C3)cc1 [4-[(1-adamantylcarbonyl)amino]benzoic acid] has MP 285 °C (via OCHEM). The entry for O=C(O)c1cc(S(=O)(=O)N2CCCCC2)ccc1Cl [2-Chloro-5-(piperidine-1-sulfonyl)-benzoic acid] lists MP 215 °C (via OCHEM).

CN(C)c1c(N)n(C)c(=O)[nH]c1=O has MP 162 °C (via OCHEM). For O=C(O)C1(c2ccc(Br)cc2)CCCC1 [1-(4-Bromophenyl)cyclopentanecarboxylic acid] the data give MP 177 °C (via OCHEM). CC(=O)c1oc2ccccc2c1N [1-(3-Amino-benzofuran-2-yl)-ethanone] is reported with MP 155 °C (via OCHEM). Listed for O=C(CCl)Nc1cccc(Oc2ccccc2)c1 [2-chloro-N-(3-phenoxyphenyl)acetamide]: MP 103 °C (via OCHEM). For S=c1cn[nH]c2ccccc12 [4-Cinnolinethiol] the data give MP 81 °C (via OCHEM).

Cc1n[nH]c(=S)o1 [5-Methyl-[1,3,4]oxadiazole-2-thiol] is reported with MP 240 °C (via OCHEM). For Fc1ccc2c(c1)CC[C@H]([C@H]1CO1)O2 [(R)-6-fluoro-3,4-dihydro-2-((R)-oxiran-2-yl)-2H-chromene] the data give MP 43.8 °C (via eChemPortal). Listed for CC(=O)CC(=O)Nc1ccc(Br)cc1 [N-(4-Bromophenyl)-3-oxobutanamide]: MP 138 °C (via OCHEM). c1ccc2c(c1)NCCS2 [2,3-Dihydro-1,4-benzothiazine] has MP 36 °C (via OCHEM).

A selection of 5 entries from above:

For O=C(O)c1cc(S(=O)(=O)N2CCCCC2)ccc1Cl [2-Chloro-5-(piperidine-1-sulfonyl)-benzoic acid] the data give MP 215 °C (via OCHEM).
For Fc1ccc2c(c1)CC[C@H]([C@H]1CO1)O2 [(R)-6-fluoro-3,4-dihydro-2-((R)-oxiran-2-yl)-2H-chromene] the data give MP 43.8 °C (via eChemPortal).
For S=c1cn[nH]c2ccccc12 [4-Cinnolinethiol] the data give MP 81 °C (via OCHEM).
For O=C(O)C1(c2ccc(Br)cc2)CCCC1 [1-(4-Bromophenyl)cyclopentanecarboxylic acid] the data give MP 177 °C (via OCHEM).
For NNC(=O)Cc1ccc(F)cc1 [2-(4-fluorophenyl)acetohydrazide] the data give MP 130 °C (via OCHEM).

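The numbers are reported measurements, compiled and curated for the OPERA QSAR suite. A listed value is a point estimate from one report or more. How each value was measured is not recorded, so precision varies. Where a salt, mixture or single isomer is drawn, the source does not say that exactly this form was tested. Some upstream entries may be estimates or bounds without being marked so.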

Values as listed in the OPERA 2.9 repository of K. Mansouri.